Assay results reported in ChEMBL document CHEMBL4834397 (J Med Chem, 2021).

Tests used:
[1] = biological target: T1, Leukotriene A-4 hydrolase (Homo sapiens, UniProt P09960); experiment: Inhibition of LTA4H in human whole blood assessed as reduction of calcium ionophore A23187-stimulated LTB4 generation preincubated for 4 hrs followed by ionophore stimulation and measured after 15 hrs by EIA assay; assay type: tissue-based
T1 sequence (P09960 whole entry): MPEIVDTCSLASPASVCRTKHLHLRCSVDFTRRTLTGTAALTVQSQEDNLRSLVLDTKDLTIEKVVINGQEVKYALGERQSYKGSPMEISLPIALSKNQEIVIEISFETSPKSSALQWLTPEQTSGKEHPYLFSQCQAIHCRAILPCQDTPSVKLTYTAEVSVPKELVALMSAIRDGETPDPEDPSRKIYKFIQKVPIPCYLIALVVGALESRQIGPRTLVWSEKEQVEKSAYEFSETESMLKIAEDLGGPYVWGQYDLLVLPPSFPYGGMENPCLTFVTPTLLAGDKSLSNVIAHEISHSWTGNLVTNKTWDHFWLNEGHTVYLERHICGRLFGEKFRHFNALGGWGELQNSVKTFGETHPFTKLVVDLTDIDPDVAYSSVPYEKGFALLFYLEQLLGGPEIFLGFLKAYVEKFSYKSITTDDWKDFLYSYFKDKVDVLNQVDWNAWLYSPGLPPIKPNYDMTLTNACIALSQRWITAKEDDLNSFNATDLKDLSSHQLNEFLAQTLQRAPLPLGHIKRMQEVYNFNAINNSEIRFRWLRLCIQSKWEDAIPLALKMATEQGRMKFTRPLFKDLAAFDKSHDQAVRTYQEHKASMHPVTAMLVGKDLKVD

[2] = biological target: T1, Leukotriene A-4 hydrolase; experiment: Inhibition of LTA4H in human PBMC assessed as reduction of calcium ionophore A23187-stimulated LTB4 generation preincubated for 4 hrs followed by ionophore stimulation and measured after 2 hrs by EIA assay; assay type: tissue-based
[3] = biological target: T1, Leukotriene A-4 hydrolase; experiment: Inhibition of recombinant full length N-terminal His6-tagged LTA4H (unknown origin) expressed in Escherichia coli BL21 DE3 cells at enzyme concentration <1 nM using Arg-AMC as substrate preincubated for 15 mins followed by substrate addition and measured every 10 mins for 300 mins by fluorescence based assay

IC50 [1]: 510 nM
IC50 [2]: 74 nM
IC50 [3]: 54 nM
Compound: O=C(O)CCCN1CCC[C@H]1COc1ccc(Oc2ccc(Cl)cc2)cc1
